Earlier results in patent US9713590B2, “Method for treatment of pain and inflammation” (CADILA HEALTHCARE LIMITED, priority 2011, dated 2017).

Details: after oral administration

- hepatic first-pass metabolism: 50%
Compound: O=C(O)Cc1ccccc1Nc1c(Cl)cccc1Cl [Diclofenac]
